Measurements as given in patent US9212130B2, “Heterocyclic derivative and pharmaceutical composition comprising the same” (SHIONOGI & CO., LTD., priority 2010, dated 2015).

Protein sequences, listed by entry. Tags and fused reporters are not part of them.
UniProt P56373, whole entry: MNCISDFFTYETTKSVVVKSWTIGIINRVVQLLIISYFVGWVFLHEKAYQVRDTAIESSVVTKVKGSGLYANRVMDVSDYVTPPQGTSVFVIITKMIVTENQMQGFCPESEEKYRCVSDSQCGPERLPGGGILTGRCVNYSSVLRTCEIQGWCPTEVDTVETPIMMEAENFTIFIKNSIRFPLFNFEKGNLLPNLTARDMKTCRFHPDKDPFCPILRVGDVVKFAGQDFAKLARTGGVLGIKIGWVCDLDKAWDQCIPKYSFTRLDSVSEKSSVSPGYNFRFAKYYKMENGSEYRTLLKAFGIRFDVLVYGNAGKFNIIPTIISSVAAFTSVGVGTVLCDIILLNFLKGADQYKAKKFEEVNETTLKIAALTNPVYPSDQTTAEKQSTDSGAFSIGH

Biological target: human P2X3 receptor (Homo sapiens (Human), UniProt P56373)
Assay: Evaluation of human P2X3 receptor inhibitory activity (ATP-induced Fluo-3 fluorescence, FDSS 3000)
Type: cell-based
Details: read-out: P2X3 IC50; C6BU-1 cell transfected with human P2X3 receptor gene

## CC(C)Oc1ccc(Nc2sc(Oc3ccccc3)nc2Cc2ccc(Cl)cc2)cc1F
  IC50: 402 nM
